Measured values as given in article PMC6203815.

Target: Pfs48/45 6C domain (NF54) (Plasmodium falciparum)

mAb TB31F (HC2-LC1), humanized IgG1 (antibody)
other: 1 µg/mL
